The results in this text go back to publication PMC11170759, “Advancing Parkinson’s Disease Diagnostics: The Potential of Arylpyrazolethiazole Derivatives for Imaging α-Synuclein Aggregates” (ACS Omega, 2024).

The test deals with human recombinant α-syn fibrils (Homo sapiens, UniProt P37840). In words: [3H]MODAG-001 saturation binding assay on α-syn fibrils. To be noted: read-out: Kd of [3H]MODAG-001 on α-syn fibrils, tested as the radiolabelled form.

In general, Kd refers to the free concentration of one partner at which half of the binding sites on the other are occupied at equilibrium, for simple one-to-one binding. As for `CN(C)c1ccc(-c2cc(-c3ccnc(Br)c3)n[nH]2)cc1`, the Kd is 4.4 nM.
